Consider one substance from PMC11889887, “Blockade of αvβ6 and αvβ8 integrins with a chromogranin A-derived peptide inhibits TGFβ activation in tumors and suppresses tumor growth” (Journal of Experimental & Clinical Cancer Research : CR, 2025).

In assay [1] the test system is TRAMP-C2, BxPC-3, and 5637 cell lines. Put plainly: Cell adhesion assay on conjugate-coated plates. Format: cell-based, mouse, human. The settings on record: plates coated with the protein; 2-3 h; crystal violet. Here is the method: Cell adhesion assays were carried out as described previously, except that the cells were seeded into 96-well plates with their own cell culture medium containing 3% BSA.
After 2-3 h of incubation, non-adherent cells were removed by washing, and adherent cells were stained with crystal violet and quantified by spectrophotometric analysis using an A570 nm filter (iMark Microplate Absorbance Reader, Bio-Rad). In cases of uneven cell adhesion, microtiter plates were treated with 10% acetic acid (150 µL/well) to dissolve crystal violet, and the absorbance of each well was quantified as described above.

In assay [2] the test system is WEHI-164, TS/A, TRAMP-C2, 5M7101/GFP/CEA, and 5637 cancer cells. Kind of assay: TGFβ bioassay on cancer cell supernatants (HEK-Blue TGFβ cells). It is filed as cell-based, mouse, human. The conditions noted are these: 48–72 h of incubation; supernatant quantified with HEK-Blue TGFβ cells. Here is the method: The quantification of bioactive TGFβ in cell supernatants was carried out using TGFβ-Reporter HEK-Blue™ cells (InvivoGen) according to the supplier’s recommendations.
The cells were seeded on cell culture microplates, allowed to adhere for 2 h, and treated with the indicated compounds for 48–72 h. The amount of active TGFβ in the supernatant was quantified using a bioassay based on HEK-Blue™ TGFβ cells (see Methods). The results of one representative experiment per each cell line are shown (mean ± SE, n = 2–4 wells). **, P < 0.01; ****P < 0.0001 by two-tailed t-test

As for “*HSA: sulfo-SMCC-activated HSA, control conjugate lacking peptide 5a (2-mercaptoethanol added)”, the “Adhesion of single- and double-positive cells to coated microtiter plates” value in assay [1] was “but not”. Besides, in assay [2], the “Production of active TGFβ by cancer cells” value is on record as “but not”.
